Data: ChEMBL document CHEMBL5512621, “Overview of the development of protein arginine methyltransferase modulators: Achievements and future directions” (Eur J Med Chem, 2024)

Sequences of proteins named here, by UniProt entry; tags and fusion partners are left off.
UniProt O14744, whole entry: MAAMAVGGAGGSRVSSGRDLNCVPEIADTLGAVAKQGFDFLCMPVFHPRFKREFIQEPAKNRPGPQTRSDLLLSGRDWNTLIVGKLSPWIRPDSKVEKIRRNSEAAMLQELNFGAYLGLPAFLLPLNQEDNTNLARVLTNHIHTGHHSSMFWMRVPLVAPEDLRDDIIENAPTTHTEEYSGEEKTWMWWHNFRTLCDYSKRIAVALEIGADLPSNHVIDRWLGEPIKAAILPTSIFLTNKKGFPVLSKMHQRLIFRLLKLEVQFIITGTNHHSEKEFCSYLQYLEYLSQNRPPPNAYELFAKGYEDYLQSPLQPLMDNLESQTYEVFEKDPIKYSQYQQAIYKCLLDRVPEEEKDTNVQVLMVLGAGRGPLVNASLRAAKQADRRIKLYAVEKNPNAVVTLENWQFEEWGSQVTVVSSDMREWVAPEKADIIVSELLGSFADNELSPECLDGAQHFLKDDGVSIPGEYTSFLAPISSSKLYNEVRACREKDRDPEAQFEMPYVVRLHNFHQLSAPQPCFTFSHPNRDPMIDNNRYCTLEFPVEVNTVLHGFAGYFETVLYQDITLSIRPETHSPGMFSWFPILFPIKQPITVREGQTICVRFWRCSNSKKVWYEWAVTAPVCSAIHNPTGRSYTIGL

Molecular target: Protein arginine N-methyltransferase 5 (Homo sapiens, UniProt O14744)
Test: Inhibition of PRMT5 (unknown origin)

IC50: 481 nM
SMILES: CC(=O)N1CCC(Nc2cc3c(cn2)CCN(C[C@H](O)[C@@H]2Cc4ccccc4CN2)C3=O)CC1
